Reference: PubChem BioAssay AID540303 (National Center for Advancing Translational Sciences (NCATS), 2011)
The entries are a selection whose mix differs from that of the whole data set. Results filed as inconclusive are left out. Entries that show only a call come without a potency. Active and inactive are the calls of the source. The call rests on the fitted dose curve; in most records, active means well fitted inhibition curve with a large enough effect; inconclusive means small, poorly fitted or top-dose-only effect; inactive means no such curve, though single readings can be large or run the other way; tested in mouse RAW 264.7 cells.

Assay: qHTS for Inhibitors of Cell Surface uPA Generation; further: nearly all actives have a fitted effect of over 55% in size
Conditions: cell surface uPA generation assay; series mostly up to 38.3 µM
Excerpt: The overall objective of this project is to perform a quantitative high throughput screen (qHTS) to identify novel compounds that inhibit the generation of cell surface urokinase activity. The urokinase plasminogen activator (uPA) is one of the two primary endogenous systems that mediate plasminogen activation into plasmin. Members of this system, including uPA and its receptor (uPAR), are overexpressed in several malignant tumors. This system plays a major role in adhesion, migration, invasion and metastasis of cancer cells. Small molecule inhibitors of the uPA system will serve as probes to understand the molecular mechanisms of the uPA cascade and better understanding the microenvironmental circumstances that facilitate the activation of plasminogen by uPA, and finally may provide novel candidate agents for anticancer drug therapy.
[…] […] Upon inhibition of the uPA activation cascade, the subsequent cell surface uPA activity-dependent translocation of LF into the cytoplasm is inhibited. ATP-Lite is used to measure intracellular ATP concentrations, which remain increased if LF entry into the cytoplasm is inhibited. This validation assay was performed using a small set of validation compounds.
NIH Chemical Genomics Center [NCGC]
NIH Molecular Libraries Probe Centers Network [MLPCN]
Assay Submitter (PI): Thomas Bugge, National Institute of Dental and Craniofacial Research, NIH
Cultured RAW 264.7 were dispensed into 1536-well clear bottom, white walled tissue culture plates at a density of 4000 cells/well and were incubated overnight (12-16 h) at 37 C in a 5% CO2 incubator. Serially diluted compounds in 23 nl DMSO were added to cells. […] Compound and reagent-treated plates were incubated for 24 h at 37 C in a 5% CO2 incubator. Perkin Elmer ATPlitetrade mark 1 step (3 ul) was then added to each well. Luminescence was detected using a Perkin Elmer ViewLuxtrade mark plate reader.
1.Dispensing RAW 264.7 cells into 1536-well, white walled tissue culture plates at a density of 4000 cells/well (4 uL).
2.Incubation at 37 C in a 5% CO2 incubator overnight.
3.Serially diluting compounds (1:5 serial dilution; 0.0024 uM to […] final concentration) in 23 nl DMSO.
5.Incubating the compound and reagent-treated plates for 24 hours at 37 C in a 5% CO2 incubator.
6.Adding ATP-Lite (3 ul).
7.Reading plates by ViewLux with an exposure length of 5 seconds.
Potency means the concentration at half of the fitted maximal effect.

SMILES	Potency
CCCCCOc1ccc(NP(C)(=O)Oc2ccc(Cl)cc2Cl)cc1 (centres undefined)	inactive
CP(=O)(Nc1ccccc1)Oc1ccc(F)cc1 (centres undefined)	inactive
CCN(CC)CCCOC(=O)C(O)(c1ccccc1)C1CCCCC1 (centres undefined)	inactive
Cc1c([N+](=O)[O-])cc([N+](=O)[O-])c(Br)c1[N+](=O)[O-]	inactive
COc1ccc(OP(C)(=O)Nc2ccc(SC(F)(F)F)cc2)cc1 (centres undefined)	inactive
CCOC(=O)c1ccc(NP(C)(=O)Oc2ccc(F)cc2)cc1 (centres undefined)	inactive
O=C(OCCN1CCN(CCOCc2ccccc2)CC1)C(O)(c1ccccc1)c1ccccc1	inactive
CC(C)c1ccc(OP(C)(=O)Nc2ccc(SC(F)(F)F)cc2)cc1 (centres undefined)	inactive
CP(=O)(Nc1ccccc1F)Oc1ccccc1 (centres undefined)	inactive
Cc1ccccc1NP(C)(=O)Nc1ccccc1C	inactive
CP(=O)(Nc1ccc2c(c1)OCCO2)Oc1ccccc1 (centres undefined)	inactive
CCOP(C)(=S)SCC(=O)NC(C)(CC)C(=O)O (centres undefined)	inactive
CP(=O)(Nc1ccc(SC(F)(F)F)cc1)Oc1ccc(F)cc1 (centres undefined)	inactive
Cc1c(C(c2ccc3c(c2)OCO3)c2c(C)n(C)n(-c3ccccc3)c2=O)c(=O)n(-c2ccccc2)n1C.O=[N+]([O-])c1cc([N+](=O)[O-])c(O)c([N+](=O)[O-])c1	inactive
Cc1cc(-c2cccc3ccccc23)c(C)cn1.O=[N+]([O-])c1cc([N+](=O)[O-])c(O)c([N+](=O)[O-])c1	inactive
O=[N+]([O-])c1ccc(OP2(=O)COCCO2)cc1 (centres undefined)	inactive
COc1ccc(NP(C)(=O)Oc2ccccc2OC)cc1 (centres undefined)	inactive
CN(C)CCOC(=O)C(O)(c1ccccc1)C1CCCCC1 (centres undefined)	inactive
COc1ccc(OP(C)(=O)Nc2cccc(Br)c2)cc1 (centres undefined)	inactive
CCOC(=O)c1ccc(NP(C)(=O)Oc2ccc(Cl)cc2)cc1 (centres undefined)	inactive
Nc1ccc2c(ccc3cccnc32)n1.O=[N+]([O-])c1cc([N+](=O)[O-])c(O)c([N+](=O)[O-])c1	inactive

SMILES	Potency
CN(C)C(=O)c1c([N+](=O)[O-])cc([N+](=O)[O-])cc1[N+](=O)[O-]	active: 10 µM
CP(=O)(Nc1ccc(Cl)cc1)Oc1ccc(F)cc1 (centres undefined)	inactive
COc1ccccc1OP(C)(=O)Nc1ccccc1Br (centres undefined)	inactive
CP(=O)(Oc1ccccc1)N1CCOC1=O (centres undefined)	inactive
CCc1ccc(OP(C)(=O)Nc2cccnc2)cc1 (centres undefined)	inactive
COc1ccccc1OP(C)(=O)Nc1c(C)n(C)n(-c2ccccc2)c1=O (centres undefined)	inactive
O=C(OCCCN1CCCC1)C(O)(c1ccccc1)C1CCCCC1 (centres undefined)	inactive
CCN(CC)CC(O)COC(=O)C(O)(c1ccccc1)C1CCCCC1 (centres undefined)	inactive
COc1ccc(OP(C)(=O)Nc2ccc(Br)cc2)cc1 (centres undefined)	inactive
CCc1ccc(OP(C)(=O)O)cc1	inactive
CP(=O)(Nc1ccccn1)Oc1ccccc1 (centres undefined)	inactive
COc1ccccc1OP(C)(=O)Nc1ccc(C)cc1C (centres undefined)	inactive
O=[N+]([O-])c1cc([N+](=O)[O-])c(Nc2ccccn2)c([N+](=O)[O-])c1	inactive
Cc1c(NP(C)(=O)Oc2ccc(C(C)C)cc2)c(=O)n(-c2ccccc2)n1C (centres undefined)	inactive
CN(C)CCOC(=O)C(O)(c1ccccc1)C1CCCC1 (centres undefined)	inactive
COc1ccc(OP(C)(=O)Nc2ccccn2)cc1 (centres undefined)	inactive
COc1ccccc1OP(C)(=O)Nc1ccc(Br)cc1 (centres undefined)	inactive
CP(=O)(OCCOc1ccccc1)OCCOc1ccccc1	inactive
CCCCCCCCCCCCCCCC1C[N+](C)(C)CCOP(C)(=O)O1 (centres undefined)	inactive
CP(=O)(Nc1ccc(Cl)cc1Cl)Oc1ccccc1 (centres undefined)	inactive
COc1ccc(OP(C)(=O)Nc2ccccc2Br)cc1 (centres undefined)	inactive

SMILES	Potency
COc1ccccc1OP(C)(=O)Nc1ccc(C)c(C)c1 (centres undefined)	inactive
Cc1cc(C)cc(OP(C)(=O)Nc2cccc(C(F)(F)F)c2)c1 (centres undefined)	inactive
COc1ccccc1OP(C)(=O)Nc1cc(Cl)ccc1C (centres undefined)	inactive
COc1ccc(OP(C)(=O)Nc2cccc(F)c2)cc1 (centres undefined)	inactive
Cc1cc(C)cc(OP(C)(N)=O)c1 (centres undefined)	inactive
CCOC(=O)c1ccc(NP(C)(=O)Oc2ccccc2)cc1 (centres undefined)	inactive
COc1ccccc1OP(C)(=O)Nc1ccc(C)cc1 (centres undefined)	inactive
Cc1ccc(NP(C)(=O)Oc2ccccc2)c(C)c1 (centres undefined)	inactive
CC(C)(C)c1ccc(OP(C)(=O)Nc2ccc(SC(F)(F)F)cc2)cc1 (centres undefined)	inactive
Cc1cccc(C)c1OP(C)(N)=O (centres undefined)	inactive
O=[N+]([O-])c1ccc2c(c1)C=Nc1ccccc1O2	inactive
O=[N+]([O-])c1cc([N+](=O)[O-])c(Nc2cccnc2)c([N+](=O)[O-])c1	active: 12.6 µM
CCN(CC)CCCOC(=O)C(O)(c1ccccc1)c1ccccc1	inactive
CP(=O)(Nc1ccccn1)Oc1ccc(Cl)cc1 (centres undefined)	inactive
CCOP(C)(=S)SCC(=O)NC(C)C(=O)O (centres undefined)	inactive
CCOC(=O)c1ccc(NP(C)(=O)Oc2ccc(OC)cc2)cc1 (centres undefined)	inactive
O=[N+]([O-])c1cc([N+](=O)[O-])c(O)c([N+](=O)[O-])c1.c1ccc(Oc2ccncc2)cc1	inactive
CCc1ccc(OP(C)(=O)N2CCN(c3ccc([N+](=O)[O-])cc3)CC2)cc1 (centres undefined)	inactive
CP(=O)(NC(=O)Nc1ccccc1)Oc1ccccc1 (centres undefined)	inactive
Cc1cc(C)cc(OP(C)(=O)Nc2ccc(SC(F)(F)F)cc2)c1 (centres undefined)	inactive
Cc1cccc(C)c1OP(C)(=O)Nc1ccc(SC(F)(F)F)cc1 (centres undefined)	inactive

SMILES	Potency
CP(=O)(Nc1ccc(SC(F)(F)F)cc1)Oc1ccc(Cl)cc1 (centres undefined)	inactive
CP(=O)(Oc1ccccc1)OC(c1ccccc1)C(F)(F)F (centres undefined)	inactive
COc1ccccc1OP(C)(=O)Nc1ccccc1 (centres undefined)	inactive
CP(=O)(Nc1ccccc1Br)Oc1ccccc1 (centres undefined)	inactive
CP(=S)(Nn1cnnc1)Oc1ccccc1 (centres undefined)	inactive
CP(=O)(Nc1ccc(SC(F)(F)F)cc1)Oc1ccccc1 (centres undefined)	inactive
CCCOc1ccc(NP(C)(=O)Oc2ccc(Cl)cc2)cc1 (centres undefined)	inactive
COc1ccccc1OP(C)(=O)Nc1c(C)cccc1C (centres undefined)	inactive
CN1CCCCC1COC(=O)C1(O)c2ccccc2CCc2ccccc21 (centres undefined)	inactive
O=[N+]([O-])c1cc([N+](=O)[O-])c(Nc2nnnn2CCO)c([N+](=O)[O-])c1	inactive
CC1=C2N=C(C=C3N=C(C(C)=C4[N-][C@@](C)([C@@H]5N=C1[C@](C)(CCC(=O)NC[C@@H](C)OP(=O)([O-])O[C@H]1[C@@H](O)[C@@H](n6cnc7cc(C)c(C)cc76)O[C@@H]1CO)[C@H]5CC(N)=O)[C@@](C)(CC(N)=O)[C@@H]4CCC(N)=O)[C@@](C)(CC(N)=O)[C@@H]3CCC(N)=O)C(C)(C)[C@@H]2CCC(N)=O.[C-]#N.[Co+3]	inactive
Cc1nc2ccc3ccccc3c2s1.O=[N+]([O-])c1cc([N+](=O)[O-])c(O)c([N+](=O)[O-])c1	inactive
O=[N+]([O-])c1cc([N+](=O)[O-])c(-c2cnn(-c3ccccc3)c2)c([N+](=O)[O-])c1	inactive
O=[N+]([O-])c1cc([N+](=O)[O-])c(-n2nnc3ccccc32)c([N+](=O)[O-])c1	inactive
CP(=O)(Nc1cccc(Br)c1)Oc1ccccc1 (centres undefined)	inactive
Cc1cc(C)cc(OP(C)(=O)Nc2ccccn2)c1 (centres undefined)	inactive
Cc1ccc(C)c(NP(C)(=O)Oc2ccccc2)c1 (centres undefined)	inactive
Cc1cc(C)cc(OP(C)(=O)Nc2ccc(C)cc2C)c1 (centres undefined)	inactive
CCOC(=O)c1ccc(NP(C)(=O)Oc2cc(C)cc(C)c2)cc1 (centres undefined)	inactive
COc1ccccc1OP(C)(=O)Nc1cccc(Br)c1 (centres undefined)	inactive
CC1=NCCc2c1[nH]c1ccccc21.O=[N+]([O-])c1cc([N+](=O)[O-])c(O)c([N+](=O)[O-])c1	inactive
